Source: US12616760B2, “Synthetic cyclic peptide mimetics” (priority 2020, dated 2026)

Protein sequences, listed by entry. Tags and fused reporters are not part of them. Residues count along the entry.
UniProt P05067, 672-711 limits assumed: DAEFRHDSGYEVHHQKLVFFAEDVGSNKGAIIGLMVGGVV

Molecular target: T1, Aβ40 (Homo sapiens, UniProt P05067)
T1 construct: The extent of Aβ40 aggregation in the presence of increasing concentrations of azacyclopeptides
Assay: Thioflavin T (ThT) fluorescence assay of Aβ40 aggregation
Type: biochemical
Method: Amyloid generation can be identified and quantified using the thioflavin T (ThT) fluorescence dye assay. […] Agents that bind and inhibit aggregation of Aβ diminish ThT fluorescence relative to untreated Aβ. The extent of Aβ40 aggregation in the presence of increasing concentrations of azacyclopeptides and azasulfurylcyclopeptide 55 was evaluated by the ThT assay. Fluorescence of Aβ40 that was aged for 48 h was used as control, defined as 0% anti-amyloidogenic activity, and compared with fluorescence in the presence of cyclic peptide mimics at increasing concentrations to measure anti-amyloidogenic activity. To facilitate head-to-head comparisons, azacyclopeptides are grouped into four families: a) Compounds 2-7, each having an aza-glycine in a different position; b) azacyclopeptides with aza-residues other than azaGly, compounds 8-20; c) NOTA-cyclic peptide mimic conjugates (40 and 43) and d) azasulfurylcyclopeptide (55). • a) Compounds 2-7. […] At such high concentrations, compound 2 may serve to promote nucleation and seed Aβ aggregation. […] The tolerance of replacement of certain of the original amino acids of compound 1 by azaGly with respect to inhibitory activity on Aβ aggregation is likely due to the effect of the additional hydrogen-bond donor which may favor interactions that compensate for the loss of more hydrophobic side chains.

c(D-Leu-L-Nle-D-Trp-L-His-Gly^-L-Lys) [Compound 55]
Inhibition of amyloidogenic activity(%) (Table 5, Aβ:peptide 1:1): 68.5%
Inhibition of amyloidogenic activity(%) (Table 5, Aβ:peptide 1:5): 73%
